The test deals with M. tuberculosis H37Rv growth inhibition. As to the kind of experiment: M. tuberculosis H37Rv growth inhibitors, H37Rv strain (AID 1626). The settings on record: for IC90: measured here: IC90 against H37Rv.

As a reminder, the IC50 is the point on the concentration scale where inhibition reaches its midpoint. Usually IC90 stands for the point of the concentration-response curve where the effect stands at 90%. Lower therefore signals an effect from little substance.

In the case of `O=C(Nc1ccc(Cl)cn1)c1ccc([N+](=O)[O-])o1`, the IC50 was 6.23 µM and the IC90 is 7.18 µM.

Turning to `Cc1[nH]n(-c2ccccc2)c(=O)c1C=Nc1ccc(S(=O)(=O)Nc2nccs2)cc1`, the IC50 was 5.9 µM and the concentration for an effect of 90% (IC90) is above 100 µM.

Turning to `Cc1cccc(CN2CCN(C(c3ccccc3)c3ccc(Cl)cc3)CC2)c1` (configuration not stated), the 50% inhibitory concentration (IC50) was 16.3 µM and the IC90 is 20.5 µM.

Turning to `O=c1[nH]c2ccccc2n1C1CCN(CCCC(c2ccc(F)cc2)c2ccc(F)cc2)CC1`, the half-maximal inhibitory concentration (IC50) was 2.17 µM and the IC90 was determined as 3.78 µM.

With `C1CCC(C(CC2CCCCN2)C2CCCCC2)CC1` (configuration not stated), the IC50 was 6.3 µM and the IC90 turned out to be 10.4 µM.

Regarding `Cc1cccc(NC(=O)c2ccc([N+](=O)[O-])o2)c1`, the IC50 was 5.65 µM and the IC90 was 6.16 µM.

The values are drawn from PubChem BioAssay AID1626 (SRMLSC, 2009).
